Patent publication US7169782B2, “Aryl substituted thiazolidinones and the use thereof” (Euro-Celtique S.A., priority 2001, dated 2007)

The chains behind the UniProt entries cited, without tags or fusion partners. Residues count along the entry.
UniProt P04775, whole entry: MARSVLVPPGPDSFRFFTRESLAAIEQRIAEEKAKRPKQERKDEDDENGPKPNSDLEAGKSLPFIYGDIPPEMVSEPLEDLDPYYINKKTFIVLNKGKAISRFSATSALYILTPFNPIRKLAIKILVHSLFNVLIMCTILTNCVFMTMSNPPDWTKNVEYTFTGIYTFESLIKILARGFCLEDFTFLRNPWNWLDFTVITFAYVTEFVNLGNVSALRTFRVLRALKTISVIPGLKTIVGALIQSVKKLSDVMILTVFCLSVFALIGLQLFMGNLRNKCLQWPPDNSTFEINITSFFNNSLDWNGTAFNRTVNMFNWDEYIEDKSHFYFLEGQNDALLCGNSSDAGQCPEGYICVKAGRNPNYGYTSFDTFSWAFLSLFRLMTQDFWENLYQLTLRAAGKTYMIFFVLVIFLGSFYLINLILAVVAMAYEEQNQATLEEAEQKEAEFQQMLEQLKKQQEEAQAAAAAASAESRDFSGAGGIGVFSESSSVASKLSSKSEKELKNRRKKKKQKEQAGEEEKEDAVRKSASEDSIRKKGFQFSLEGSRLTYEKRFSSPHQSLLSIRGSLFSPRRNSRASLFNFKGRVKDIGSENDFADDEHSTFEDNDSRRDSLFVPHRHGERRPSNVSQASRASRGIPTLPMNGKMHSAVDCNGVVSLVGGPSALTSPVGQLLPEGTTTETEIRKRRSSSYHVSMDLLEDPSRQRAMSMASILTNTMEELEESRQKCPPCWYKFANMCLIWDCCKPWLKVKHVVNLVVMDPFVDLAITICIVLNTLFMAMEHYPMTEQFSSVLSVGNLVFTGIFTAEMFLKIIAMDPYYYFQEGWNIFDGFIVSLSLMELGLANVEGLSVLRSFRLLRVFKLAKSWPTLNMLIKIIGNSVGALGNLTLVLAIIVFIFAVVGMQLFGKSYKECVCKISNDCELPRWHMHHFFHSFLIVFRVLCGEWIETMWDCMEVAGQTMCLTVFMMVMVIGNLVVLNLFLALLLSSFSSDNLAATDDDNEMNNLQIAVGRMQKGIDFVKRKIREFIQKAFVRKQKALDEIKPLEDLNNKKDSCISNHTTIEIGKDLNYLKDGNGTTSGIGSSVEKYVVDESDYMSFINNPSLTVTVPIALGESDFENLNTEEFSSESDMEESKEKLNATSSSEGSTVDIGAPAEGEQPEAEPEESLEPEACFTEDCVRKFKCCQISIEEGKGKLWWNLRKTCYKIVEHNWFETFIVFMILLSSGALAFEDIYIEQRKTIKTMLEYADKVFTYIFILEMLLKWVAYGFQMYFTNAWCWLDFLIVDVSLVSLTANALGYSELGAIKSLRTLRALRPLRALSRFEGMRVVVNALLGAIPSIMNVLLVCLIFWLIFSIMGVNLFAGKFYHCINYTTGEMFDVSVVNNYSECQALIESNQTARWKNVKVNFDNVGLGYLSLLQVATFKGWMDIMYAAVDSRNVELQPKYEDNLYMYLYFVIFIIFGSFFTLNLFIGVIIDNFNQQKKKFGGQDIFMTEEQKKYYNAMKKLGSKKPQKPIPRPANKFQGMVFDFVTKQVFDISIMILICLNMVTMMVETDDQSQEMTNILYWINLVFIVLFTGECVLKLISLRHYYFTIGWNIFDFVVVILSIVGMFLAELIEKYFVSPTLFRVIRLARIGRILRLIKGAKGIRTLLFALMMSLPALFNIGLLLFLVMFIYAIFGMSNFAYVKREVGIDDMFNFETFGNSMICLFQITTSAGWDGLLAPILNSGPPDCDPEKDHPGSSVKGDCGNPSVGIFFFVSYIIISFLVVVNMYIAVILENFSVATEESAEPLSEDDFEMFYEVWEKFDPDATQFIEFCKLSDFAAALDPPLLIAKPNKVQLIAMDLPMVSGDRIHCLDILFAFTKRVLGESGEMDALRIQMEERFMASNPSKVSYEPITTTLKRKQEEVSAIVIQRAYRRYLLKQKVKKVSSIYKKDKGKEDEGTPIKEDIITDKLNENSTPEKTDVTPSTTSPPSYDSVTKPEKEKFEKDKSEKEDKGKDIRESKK
UniProt Q00954, 19-218 partner limits assumed: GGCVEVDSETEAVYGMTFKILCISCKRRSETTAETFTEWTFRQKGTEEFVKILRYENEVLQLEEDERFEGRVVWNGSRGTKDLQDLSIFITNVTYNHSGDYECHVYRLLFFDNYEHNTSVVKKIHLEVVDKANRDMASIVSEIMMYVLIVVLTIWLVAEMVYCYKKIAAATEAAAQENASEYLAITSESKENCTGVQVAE

Target: rBIIa/beta 1 sodium channels expressed in Xenopus oocytes (Rattus norvegicus, UniProt P04775)
Assay: Electrophysiological assay, two-electrode voltage clamp in oocytes, inactivated-state protocol
Assay type: cell-based
Conditions: read-out: Ki (oocyte), apparent inhibition constant from single point inhibition data, rat brain type IIa/beta 1 Na+ channels in Xenopus oocytes

CCC1SCC(=O)N1CCN1CCCCC1 (stereo not shown)
Ki: 27.3 µM
